We go through 1 molecule from patent publication US10702572B2, “Methods and compounds to suppress viral genome release and packaging” (Carnegie Mellon University, priority 2015, dated 2020).

The conditions of series [1]: oral (rat); cited from earlier work.
A further series is described as follows: LD50 in rat. As to conditions: oral (rat), conversion in brackets.

`Cl.Cl.Cl.Cl.NCCCNCCCCNCCCN` [spermine tetrahydrochloride]: the LD50 in series [1] was 129 mg/kg. Moreover, in “LD50 in rat”, the LD50 as concentration is roughly 0.4 mM.
